Experimental data as given in PMC8428256 (Journal of medicinal chemistry, 2021).

The chains behind the UniProt entries cited, without tags or fusion partners. Residues count along the entry.
UniProt P01721, 20-117 T66L/K101C: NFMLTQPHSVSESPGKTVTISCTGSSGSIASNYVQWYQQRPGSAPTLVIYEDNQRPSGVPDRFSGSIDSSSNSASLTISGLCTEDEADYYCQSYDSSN

Assays:
WIL-FL T46L/F49Y/C214S = assay: Protease sensitivity assay with destabilized WIL-FL T46L/F49Y/C214S; type: biochemical, human; conditions: 10 μM stabilizer, 0.5% DMSO, proteinase K, 1 h, 37 °C; mean ± 1 SD
plasma proteins = type: in vitro ADME, human or mouse; conditions: 2 μM in plasma, dialysis 4 h, 37 °C
WIL-FL F98D = conditions: Figure S5
WIL-FL* T46L/F49Y = WIL-FL* T46L/F49Y (Homo sapiens, UniProt P01721, form not given/K101C/T66L); conditions: EC50 ratio WIL-FL vs WIL-FL T46L/F49Y

CCN(CC)c1ccc2c(C)c(CCN3C(=O)NC4(CCN(c5ncnc6[nH]ncc56)CC4)C3=O)c(=O)oc2c1 [Compound 44, 3-(2-(7-(diethylamino)-4-methyl-2-oxo-2H-chromen-3-yl)ethyl)-8-(1H-pyrazolo[3,4-d]pyrimidin-4-yl)-1,3,8-triazaspiro[4.5]decane-2,4-dione]
WIL-FL T46L/F49Y/C214S fold protection at 10 μM small molecule (WIL-FL T46L/F49Y/C214S): < 0.01

CCN(CC)c1ccc2c(C)cc(=O)oc2c1 [Compound 1]
plasma protein binding (in words) (plasma proteins): very high plasma protein binding

CCN(CC)c1ccc2c(C)c(CCN3CC4(CCN(c5nccn6ccnc56)CC4)NC3=O)c(=O)oc2c1 [Compound 53, 3-(2-(7-(diethylamino)-4-methyl-2-oxo-2H-chromen-3-yl)ethyl)-8-(imidazo[1,2-a]pyrazin-8-yl)-1,3,8-triazaspiro[4.5]decan-2-one]
proteinase K resistance provided to WIL-FL F98D (WIL-FL F98D): no appreciable proteinase K resistance

CCN(CC)c1ccc2c(C)c(CCN3C(=O)NC4(CCN(c5ncccn5)CC4)C3=O)c(=O)oc2c1 [Compound 42, 3-(2-(7-(diethylamino)-4-methyl-2-oxo-2H-chromen-3-yl)ethyl)-8-(pyrimidin-2-yl)-1,3,8-triazaspiro[4.5]decane-2,4-dione]
WIL-FL T46L/F49Y/C214S fold protection at 10 μM small molecule (WIL-FL T46L/F49Y/C214S): < 0.01

CCN(CC)c1ccc2c(C)c(CCOC(=O)NCc3cccc(-c4ccc[nH]c4=O)c3)c(=O)oc2c1 [Compound 27, 2-(7-(diethylamino)-4-methyl-2-oxo-2H-chromen-3-yl)ethyl (3-(2-oxo-1,2-dihydropyridin-3-yl)benzyl)carbamate]
potency increase with WIL-FL T46L/F49Y consensus sequence in comparison to parent WIL-FL sequence (WIL-FL* T46L/F49Y): up to a six-fold potency increase
